Laboratory results taken from patent publication US20130102618A1, “3-AMINO-5,6-DIHYDRO-1H-PYRAZIN-2-ONE DERIVATIVES USEFUL FOR THE TREATMENT OF ALZHEIMER'S DISEASE AND OTHER FORMS OF DEMENTIA” (JANSSEN PHARMACEUTICA NV, priority 2010, published 2013).

The chains behind the UniProt entries cited, without tags or fusion partners. Residues count along the entry.
UniProt P56817, 46-501 limits assumed: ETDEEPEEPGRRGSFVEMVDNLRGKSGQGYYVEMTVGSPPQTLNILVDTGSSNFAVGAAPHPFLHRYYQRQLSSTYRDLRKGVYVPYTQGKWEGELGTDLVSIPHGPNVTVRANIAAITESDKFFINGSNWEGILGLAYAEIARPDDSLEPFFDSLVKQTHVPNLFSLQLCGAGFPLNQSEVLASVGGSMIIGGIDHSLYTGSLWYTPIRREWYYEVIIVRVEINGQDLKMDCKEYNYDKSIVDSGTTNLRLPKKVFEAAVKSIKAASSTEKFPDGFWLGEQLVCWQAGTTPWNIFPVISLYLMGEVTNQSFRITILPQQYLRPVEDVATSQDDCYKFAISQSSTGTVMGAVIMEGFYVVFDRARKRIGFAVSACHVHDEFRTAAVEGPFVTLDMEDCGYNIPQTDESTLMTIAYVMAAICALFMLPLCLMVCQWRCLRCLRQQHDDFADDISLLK

What was measured:
[1] = tested on: Aβtotal produced and secreted into the medium of human neuroblastoma SKNBE2 cells; test: Cellular αlisa assay in SKNBE2 cells, Aβtotal; conditions: SKNBE2 expressing wild type hAPP695, incubated for 18 hours
[2] = target: recombinant BACE1 protein (Homo sapiens, UniProt P56817); test: Biochemical FRET based assay; conditions: recombinant BACE1 1 μg/ml, APP-derived Swedish-mutation peptide substrate, 120 minutes, room temperature, pH 5.0
[3] = tested on: Aβ42 produced and secreted into the medium of human neuroblastoma SKNBE2 cells; test: Cellular αlisa assay in SKNBE2 cells, Aβ42; format: cell-based; conditions: SKNBE2 expressing wild type hAPP695, incubated for 18 hours

| Structure (SMILES) | Cellular αlisa assay in SKNBE2 cells Aβtotal pIC50 [1] | Biochemical FRET based assay pIC50 [2] | Cellular αlisa assay in SKNBE2 cells Aβ42 pIC50 [3] | Biochemical FRET based assay pIC50 ([2]; tested form: hydrochloride) | Cellular αlisa assay in SKNBE2 cells Aβtotal pIC50 ([1]; tested form: hydrochloride) | Cellular αlisa assay in SKNBE2 cells Aβ42 pIC50 ([3]; tested form: hydrochloride) |
| --- | --- | --- | --- | --- | --- | --- |
| CN1C[C@@](C)(c2cc(NC(=O)c3ccc(Cl)cn3)ccc2F)N=C(N)C1=O | 7.60 | – | – | – | – | – |
| CN1C[C@](C)(c2cc(NC(=O)c3ccc(Cl)cn3)ccc2F)N=C(N)C1=O | <5 | – | – | – | – | – |
| CN1C[C@](C)(c2cc(-c3cncnc3)c(F)cc2F)N=C(N)C1=O | <5 | <4.52 | <5 | – | – | – |
| CN1C[C@](C)(c2cccc(NC(=O)c3ccc(Cl)cn3)c2)N=C(N)C1=O | <5 | <4.52 | <5 | – | – | – |
| COc1cncc(-c2cc([C@]3(C)CN(C)C(=O)C(N)=N3)c(F)cc2F)c1 | 5.70 | 5.42 | 5.76 | – | – | – |
| CN1C[C@@](C)(c2cccc(NC(=O)c3ccc(Cl)cn3)c2)N=C(N)C1=O | 7.07 | 6.53 | 7.08 | – | – | – |
| CN1C[C@@](C)(c2cc(-c3cncnc3)c(F)cc2F)N=C(N)C1=O | 5.52 | 5.04 | 5.47 | – | – | – |
| COc1cncc(-c2cc([C@@]3(C)CN(C)C(=O)C(N)=N3)c(F)cc2F)c1 | <5 | <4.52 | <5 | – | – | – |
| CN1CC(C)(c2cccc(-c3ccccc3)c2)N=C(N)C1=O (centres unmarked) | – | – | – | <4.52 | <5 | <5 |
